Reference: ChEMBL document CHEMBL4261658, “4-Hydroxy-3-nitro-5-ureido-benzenesulfonamides Selectively Target the Tumor-Associated Carbonic Anhydrase Isoforms IX and XII Showing Hypoxia-Enhanced Antiproliferative Profiles” (J Med Chem, 2018)

Key:
Assay type in all cases: functional, cell-based
HT-29 [1] = experiment: Cytotoxicity against human HT-29 cells assessed as reduction in cell viability after 48 hrs under hypoxic conditions by MTT assay
How it was run: (§1)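 Cells cultured in high-glucose DMEM with 20% FBS at 37 °C and 5% CO2, seeded at 1x10^4/well, then dosed 24 h later (0–200 μM) for 48 h. Hypoxia: 1% O2, 5% CO2, balance N2 in a hypoxic workstation; normoxia: 20% O2 in air, 5% CO2. MTT (1 mg/ml) for 30 min at 37 °C, formazan dissolved in DMSO, A550. Untreated control set to 100%; quadruplicates, ≥3 cell batches, mean ± S.E.M.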

MDA-MB-231 [2] = experiment: Cytotoxicity against human MDA-MB-231 cells assessed as reduction in cell viability after 48 hrs under normoxic conditions by MTT assay; how it was run: as §1
HT-29 [3] = experiment: Cytotoxicity against human HT-29 cells assessed as reduction in cell viability after 48 hrs under normoxic conditions by MTT assay; how it was run: as §1
MDA-MB-231 [4] = experiment: Cytotoxicity against human MDA-MB-231 cells assessed as reduction in cell viability after 48 hrs under hypoxic conditions by MTT assay; how it was run: as §1
PC-3 [5] = experiment: Cytotoxicity against human PC3 cells assessed as reduction in cell viability after 48 hrs under normoxic conditions by MTT assay; how it was run: as §1
PC-3 [6] = experiment: Cytotoxicity against human PC3 cells assessed as reduction in cell viability after 48 hrs under hypoxic conditions by MTT assay; how it was run: as §1

Measured: Activity

NS(=O)(=O)c1cc([N+](=O)[O-])c(O)c([N+](=O)[O-])c1
active: HT-29 [1] Dose-dependent effect | MDA-MB-231 [2] Dose-dependent effect | HT-29 [3] Dose-dependent effect | MDA-MB-231 [4] Dose-dependent effect | PC-3 [5] Dose-dependent effect | PC-3 [6] Dose-dependent effect
